The results in this text go back to patent US20230257351A1, “SUBSTITUTED N-PHENYLACETAMIDES HAVING P2X4 RECEPTOR ANTAGONISTIC ACTIVITY” (Bayer Aktiengesellschaft, priority 2020, published 2023).

The test deals with T1, human P2X4 (Homo sapiens, UniProt Q99571).
T1 construct: expressed in transfected cells
T1 sequence (Q99571 1-388): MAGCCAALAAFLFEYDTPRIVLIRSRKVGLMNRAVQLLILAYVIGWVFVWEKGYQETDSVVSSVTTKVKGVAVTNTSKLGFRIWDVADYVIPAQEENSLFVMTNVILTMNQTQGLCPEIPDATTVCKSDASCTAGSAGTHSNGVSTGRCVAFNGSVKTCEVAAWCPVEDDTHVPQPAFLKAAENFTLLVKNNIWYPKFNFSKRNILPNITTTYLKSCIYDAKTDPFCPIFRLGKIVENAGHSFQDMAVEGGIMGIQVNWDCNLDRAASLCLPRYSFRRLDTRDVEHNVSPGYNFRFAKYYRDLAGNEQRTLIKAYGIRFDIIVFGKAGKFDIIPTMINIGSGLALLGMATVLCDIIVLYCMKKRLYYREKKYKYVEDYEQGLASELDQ
Briefly: Human P2X4 HEK Cell FLIPR Assay. The test is classed as cell-based. Particulars: HEK293 stably expressing human P2X4; agonist Bz-ATP 3 μM (EC80); read-out: Human P2X4 HEK Cells (FLIPR Assay) avg IC50. Here is the method: Compounds were tested on a HEK293 cell line stably expressing human P2X4. Cells were cultured on poly-D-lysine-coated 384-well plates at a density of 15,000 cells/well and incubated overnight at 37° C., 5% CO2. P2X4 function was assessed by measuring intracellular calcium fluxes caused by Benzoylbenzoyl-ATP (Bz-ATP) using the calcium-chelating dye Fluo8-AM (Molecular Devices) with the Fluorescent Imaging Plate Reader Tetra (FLIPR^Tetra; Molecular Devices CA). On the day of the assay, the medium was removed and the cells were incubated for 30 min at 37° C. and 5% CO2 in 30 μl of dye buffer (Hank's balanced salt solution, 10 mM HEPES, 1.8 mM CaCl2, 1 mM MgCl2, 2 mM probenecid, 5 mM D-glucose monohydrate, 5 μM Fluo8-AM, pH=7.4). Compounds diluted in probenecid buffer (Hank's balanced salt solution, 10 mM HEPES, 1.8 mM CaCl2, 1 mM MgCl2, 2 mM probenecid, 5 mM D-glucose monohydrate, pH=7.4) at ten concentrations ranging from 25 μM to 1 nM (final concentration) were dispensed and incubated for 30 min at room temperature. The agonist, Bz-ATP (Tocris Bio-Techne GmbH, DE), was added at a final concentration of 3 μM, representing the EC80 routinely determined. The final assay volume was 50 μl and final DMSO concentration was 0.5%.
The fluorescence intensity reflecting intracellular calcium changes was recorded before and after Bz-ATP addition, at an excitation and emission wavelengths of 470-495 nm and 515-575 nm respectively.
The compounds were tested in triplicates and fluorescence intensity raw data normalized to the agonist control and fitted to the four-parameter logistic equation:
Y=Bottom+(Top−Bottom)/(1+10^((Log IC50−X)*HillSlope))
The efficacy of saturating concentrations of the agonist BzATP (3 μM) was set as maximal response (100% Emax) and the bottom defined by the signal achieved with 0.5% DMSO.
Assay plate acceptance was based on the signal window (S/B)[…] and the reference compound pIC50 within ±3σ the mean of historic pIC50 of the compound. Failure to meet two of the three criteria determined exclusion of the plate's results.

`CC(=O)N(c1ccc(C#N)c(C(F)(F)F)c1)c1cc(NC(=O)Cc2ccccc2Cl)ccn1` [Example 10, N-{4-[2-(2-chlorophenyl)acetamido]pyridin-2-yl}-N-[4-cyano-3-(trifluoromethyl)phenyl]acetamide]: the IC50 stood at 0.875 µM.
As for `CC(=O)N(c1ccc(C#N)c(C(F)(F)F)c1)c1cc(NC(=O)Cc2cccc(F)c2Cl)ccn1` [Example 11, N-{4-[2-(2-chloro-3-fluorophenyl)acetamido]pyridin-2-yl}-N-[4-cyano-3-(trifluoromethyl)phenyl]acetamide], the IC50 stood at 0.977 µM.
With `CC(=O)N(c1ccc(C#N)c(C(F)(F)F)c1)c1cc(NC(=O)Cc2c(Cl)cccc2Cl)ccn1` [Example 12, N-[4-cyano-3-(trifluoromethyl)phenyl]-N-{4-[2-(2,6-dichlorophenyl)acetamido]pyridin-2-yl}acetamide], the IC50 was determined as 0.973 µM.
